From US20260022143A1, “Cyclic Peptide Inhibitors of IL-23” (JANSSEN PHARMACEUTICA NV, priority 2022, published 2026)

Each compound was assayed against T1, IL-23R (Homo sapiens, UniProt Q5VWK5) (assay: IL23R Reporter Assay). Settings: HEK293 cells containing IL-23R, IL-12RP1 and STAT-inducible firefly luciferase reporter; 10 ng/mL IL-23 (EC90); 5 h at 37° C.; read-out: IL23R Reporter Assay.
T1 construct: host or cells: HEK293
T1 sequence (Q5VWK5 24-629): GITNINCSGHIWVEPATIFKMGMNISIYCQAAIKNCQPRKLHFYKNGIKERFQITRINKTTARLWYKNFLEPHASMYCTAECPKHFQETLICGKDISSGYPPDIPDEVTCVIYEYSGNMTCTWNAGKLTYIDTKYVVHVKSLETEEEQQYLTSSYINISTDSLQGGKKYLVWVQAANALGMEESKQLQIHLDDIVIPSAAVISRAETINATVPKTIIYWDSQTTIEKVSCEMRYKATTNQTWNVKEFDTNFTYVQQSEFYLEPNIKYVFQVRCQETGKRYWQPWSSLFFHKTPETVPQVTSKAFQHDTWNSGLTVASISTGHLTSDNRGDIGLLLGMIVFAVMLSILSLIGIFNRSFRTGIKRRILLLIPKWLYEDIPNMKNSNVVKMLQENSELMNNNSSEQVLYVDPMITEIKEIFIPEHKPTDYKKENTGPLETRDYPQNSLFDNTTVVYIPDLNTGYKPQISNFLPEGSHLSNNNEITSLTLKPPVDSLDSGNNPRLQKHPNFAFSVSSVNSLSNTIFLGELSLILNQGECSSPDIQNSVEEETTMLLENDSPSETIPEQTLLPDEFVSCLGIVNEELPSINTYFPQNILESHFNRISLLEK
Assay type: cell-based

| IC50 | Compound |
| --- | --- |
| 1.7 nM | CC(=O)N(C)CCCC[C@@H]1NC(=O)[C@H](Cc2c[nH]c3c(C)cccc23)NC(=O)[C@H]([C@@H](C)O)NC(=O)[C@H](CC(=O)N(C)C)NC(=O)[C@@H](NC(=O)CCOCCNC(=N)N)C(C)(C)SSC(C)(C)[C@@H](C(=O)N[C@@H](Cc2ccc(OCCOCCOCC[N+](C)(C)C)cc2)C(=O)N[C@@H](Cc2ccc3ccccc3c2)C(=O)NC2(C(=O)N[C@@H](CCCCN(C)C(C)=O)C(=O)N[C@@H](CC(N)=O)C(=O)N[C@@H](Cc3cccnc3)C(=O)N(C)CC(=O)N(C)C)CCOCC2)NC1=O [compound 413, cPEG2gCO-Pen(3)-N(N(Me)2)-T-7MeW-K(NMeAc)-Pen(3)-APEG3F-2Nal-THP-K(NMeAc)-N-3Pya-Sar-CON(Me)2] |
| 2.3 nM | CC(=O)NCCCC[C@@H]1NC(=O)[C@H](Cc2c[nH]c3c(C)cccc23)NC(=O)[C@H]([C@@H](C)O)NC(=O)[C@H](CC(N)=O)NC(=O)[C@@H](NC(=O)CCOCCOCC[N+](C)(C)C)C(C)(C)SSC(C)(C)[C@@H](C(=O)N[C@@H](Cc2ccc(-n3cc(CCC[N+](C)(C)C)nn3)cc2)C(=O)N[C@@H](Cc2ccc3ccccc3c2)C(=O)NC2(C(=O)N[C@@H](CCCCNC(C)=O)C(=O)N[C@@H](CC(N)=O)C(=O)N[C@@H](Cc3cccnc3)C(=O)N(C)CC(N)=O)CCOCC2)NC1=O [compound 420, cPEG3aCO-Pen(3)-N-T-7MeW-K(Ac)-Pen(3)-F(4TzlTMA3)-2Nal-THP-K(Ac)-N-3Pya-Sar-CONH2] |
| 1.1 nM | CC(=O)NCCCC[C@@H]1NC(=O)[C@H](Cc2c[nH]c3c(C)cccc23)NC(=O)[C@H]([C@@H](C)O)NC(=O)[C@H](CC(N)=O)NC(=O)[C@@H](NC(C)=O)C(C)(C)SSC(C)(C)[C@@H](C(=O)N[C@@H](Cc2ccc(-n3cc(CCC[N+](C)(C)C)nn3)cc2)C(=O)N[C@@H](Cc2ccc3ccccc3c2)C(=O)NC2(C(=O)N[C@@H](CCCCNC(C)=O)C(=O)N[C@@H](CC(N)=O)C(=O)N[C@@H](Cc3cccnc3)C(=O)N(C)CC(N)=O)CCOCC2)NC1=O [compound 423] |
| 1.7 nM | CC(=O)NCCCC[C@@H]1NC(=O)[C@H](Cc2c[nH]c3c(C)cccc23)NC(=O)[C@H]([C@@H](C)O)NC(=O)[C@H](CC(N)=O)NC(=O)[C@@H](NC(C)=O)C(C)(C)SSC(C)(C)[C@@H](C(=O)N[C@@H](Cc2ccc(-n3cc(CCCC[N+](C)(C)C)nn3)cc2)C(=O)N[C@@H](Cc2ccc3ccccc3c2)C(=O)NC2(C(=O)N[C@@H](CCCCNC(C)=O)C(=O)N[C@@H](CC(N)=O)C(=O)N[C@@H](Cc3cccnc3)C(=O)N(C)CC(N)=O)CCOCC2)NC1=O [compound 425] |
| 3.9 nM | CC(=O)NCCCC[C@@H]1NC(=O)[C@H](Cc2c[nH]c3c(C)cccc23)NC(=O)[C@H]([C@@H](C)O)NC(=O)[C@H](CC(N)=O)NC(=O)[C@@H](NC(=O)CCOCCOCC[N+](C)(C)C)C(C)(C)SSC(C)(C)[C@@H](C(=O)N[C@@H](Cc2ccc(OCCCCC[N+](C)(C)C)cc2)C(=O)N[C@@H](Cc2ccc3ccccc3c2)C(=O)NC2(C(=O)N[C@@H](CCC(=O)O)C(=O)N[C@@H](CC(N)=O)C(=O)N[C@@H](Cc3cccnc3)C(=O)N(C)CC(N)=O)CCOCC2)NC1=O [compound 427, cPEG3aCO-Pen(3)-N-T-7MeW-K(Ac)-Pen(3)-TMAPF-2Nal-THP-E-N-3Pya-Sar-CONH2] |
| 2.3 nM | CC(=O)NCCCC[C@@H]1NC(=O)[C@H](Cc2c[nH]c3c(C)cccc23)NC(=O)[C@H]([C@@H](C)O)NC(=O)[C@H](CC(N)=O)NC(=O)[C@@H](NC(C)=O)C(C)(C)SSC(C)(C)[C@@H](C(=O)N[C@@H](Cc2ccc(OCC[N+]3(C)CCOCC3)cc2)C(=O)N[C@@H](Cc2ccc3ccccc3c2)C(=O)NC2(C(=O)N[C@@H](CCC(=O)O)C(=O)N[C@@H](CC(N)=O)C(=O)N[C@@H](Cc3cccnc3)C(=O)N(C)CC(N)=O)CCOCC2)NC1=O [compound 431] |
| 3.6 nM | CC(=O)NCCCC[C@@H]1NC(=O)[C@H](Cc2c[nH]c3c(C)cccc23)NC(=O)[C@H]([C@@H](C)O)NC(=O)[C@H](CC(N)=O)NC(=O)[C@@H](NC(C)=O)C(C)(C)SSC(C)(C)[C@@H](C(=O)N[C@@H](Cc2ccc(OCCOCCOCC[N+]3(C)CCOCC3)cc2)C(=O)N[C@@H](Cc2ccc3ccccc3c2)C(=O)NC2(C(=O)N[C@@H](CCC(=O)O)C(=O)N[C@@H](CC(N)=O)C(=O)N[C@@H](Cc3cccnc3)C(=O)N(C)CC(N)=O)CCOCC2)NC1=O [compound 432] |
| 3.6 nM | CC(=O)NCCCC[C@@H]1NC(=O)[C@H](Cc2c[nH]c3c(C)cccc23)NC(=O)[C@H]([C@@H](C)O)NC(=O)[C@H](CC(N)=O)NC(=O)[C@@H](NC(C)=O)C(C)(C)SSC(C)(C)[C@@H](C(=O)N[C@@H](Cc2ccc(OCCOCCOCC[N+]3(C)CCN(C)CC3)cc2)C(=O)N[C@@H](Cc2ccc3ccccc3c2)C(=O)NC2(C(=O)N[C@@H](CCC(=O)O)C(=O)N[C@@H](CC(N)=O)C(=O)N[C@@H](Cc3cccnc3)C(=O)N(C)CC(N)=O)CCOCC2)NC1=O [compound 433] |
| 2.2 nM | CC(=O)NCCCC[C@@H]1NC(=O)[C@H](Cc2c[nH]c3c(C)cccc23)NC(=O)[C@H]([C@@H](C)O)NC(=O)[C@H](CC(N)=O)NC(=O)[C@@H](NC(C)=O)C(C)(C)SSC(C)(C)[C@@H](C(=O)N[C@@H](Cc2ccc(N=[N+]=[N-])cc2)C(=O)N[C@@H](Cc2ccc3ccccc3c2)C(=O)NC2(C(=O)N[C@@H](CCC(=O)O)C(=O)N[C@@H](CC(N)=O)C(=O)N[C@@H](Cc3cccnc3)C(=O)N(C)CC(N)=O)CCOCC2)NC1=O [compound 435] |
| 2.5 nM | CC(=O)NCCCC[C@@H]1NC(=O)[C@H](Cc2c[nH]c3c(C)cccc23)NC(=O)[C@H]([C@@H](C)O)NC(=O)[C@H](CC(N)=O)NC(=O)[C@@H](NC(=O)CCOCCOCC[N+](C)(C)C)C(C)(C)SSC(C)(C)[C@@H](C(=O)N[C@@H](Cc2ccc(-n3cc(CCC[N+]4(C)CCOCC4)nn3)cc2)C(=O)N[C@@H](Cc2ccc3ccccc3c2)C(=O)NC2(C(=O)N[C@@H](CCCCNC(C)=O)C(=O)N[C@@H](CC(N)=O)C(=O)N[C@@H](Cc3cccnc3)C(=O)N(C)CC(N)=O)CCOCC2)NC1=O [compound 439, cPEG3aCO-Pen(3)-N-T-7MeW-K(Ac)-Pen(3)-F(4TzlMMo3)-2Nal-THP-K(Ac)-N-3Pya-Sar-CONH2] |
| 2.7 nM | CC(=O)NCCCC[C@@H]1NC(=O)[C@H](Cc2c[nH]c3c(C)cccc23)NC(=O)[C@H]([C@@H](C)O)NC(=O)[C@H](CC(N)=O)NC(=O)[C@@H](NC(C)=O)C(C)(C)SSC(C)(C)[C@@H](C(=O)N[C@@H](Cc2ccc(-n3cc(C[N+](C)(C)C)nn3)cc2)C(=O)N[C@@H](Cc2ccc3ccccc3c2)C(=O)NC2(C(=O)N[C@@H](CCC(=O)O)C(=O)N[C@@H](CC(N)=O)C(=O)N[C@@H](Cc3cccnc3)C(=O)N(C)CC(N)=O)CCOCC2)NC1=O [compound 441] |
| 2.9 nM | CC(=O)NCCCC[C@@H]1NC(=O)[C@H](Cc2c[nH]c3c(C)cccc23)NC(=O)[C@H]([C@@H](C)O)NC(=O)[C@H](CC(N)=O)NC(=O)[C@@H](NC(C)=O)C(C)(C)SSC(C)(C)[C@@H](C(=O)N[C@@H](Cc2ccc(-n3cc(CCCC[N+](C)(C)C)nn3)cc2)C(=O)N[C@@H](Cc2ccc3ccccc3c2)C(=O)NC2(C(=O)N[C@@H](CCC(=O)O)C(=O)N[C@@H](CC(N)=O)C(=O)N[C@@H](Cc3cccnc3)C(=O)N(C)CC(N)=O)CCOCC2)NC1=O [compound 442] |
| 2.9 nM | CC(=O)NCCCC[C@@H]1NC(=O)[C@H](Cc2c[nH]c3c(-c4cccc(NC(C)=O)c4)cccc23)NC(=O)[C@H]([C@@H](C)O)NC(=O)[C@H](CC(N)=O)NC(=O)[C@@H](NC(=O)CCOCCOCC[N+](C)(C)C)C(C)(C)SSC(C)(C)[C@@H](C(=O)N[C@@H](Cc2ccc(OCCCCC[N+](C)(C)C)cc2)C(=O)N[C@@H](Cc2ccc3ccccc3c2)C(=O)NC2(C(=O)N[C@@H](CCC(=O)O)C(=O)N[C@@H](CC(N)=O)C(=O)N[C@@H](Cc3cccnc3)C(=O)N(C)CC(N)=O)CCOCC2)NC1=O [compound 444, cPEG3aCO-Pen(3)-N-T-7(3NAcPh)W-K(Ac)-Pen(3)-TMAPF-2Nal-THP-E-N-3Pya-Sar-CONH2] |
| 1.7 nM | CC(=O)NCCCC[C@@H]1NC(=O)[C@H](Cc2c[nH]c3c(-c4cccc(NC(C)=O)c4)cccc23)NC(=O)[C@H]([C@@H](C)O)NC(=O)[C@H](CC(N)=O)NC(=O)[C@@H](NC(=O)CCOCCOCC[N+](C)(C)C)C(C)(C)SSC(C)(C)[C@@H](C(=O)N[C@@H](Cc2ccc(OCCN)cc2)C(=O)N[C@@H](Cc2ccc3ccccc3c2)C(=O)NC2(C(=O)N[C@@H](CCCCNC(C)=O)C(=O)N[C@@H](CC(N)=O)C(=O)N[C@@H](Cc3cccnc3)C(=O)N(C)CC(N)=O)CCOCC2)NC1=O [compound 445, cPEG3aCO-Pen(3)-N-T-7(3NAcPh)W-K(Ac)-Pen(3)-AEF-2Nal-THP-K(Ac)-N-3Pya-Sar-CONH2] |
| 2.4 nM | CC(=O)NCCCC[C@@H]1NC(=O)[C@H](Cc2c[nH]c3c(C)cccc23)NC(=O)[C@H]([C@@H](C)O)NC(=O)[C@H](CC(N)=O)NC(=O)[C@@H](NC(=O)[C@@H](CCCC[N+](C)(C)C)NC(C)=O)C(C)(C)SSC(C)(C)[C@@H](C(=O)N[C@@H](Cc2ccc(OCCCCC[N+](C)(C)C)cc2)C(=O)N[C@@H](Cc2ccc3ccccc3c2)C(=O)NC2(C(=O)N[C@@H](CCC(=O)O)C(=O)N[C@@H](CC(N)=O)C(=O)N[C@@H](Cc3cccnc3)C(=O)N(C)CC(N)=O)CCOCC2)NC1=O [compound 446, MeCO-k(Me)3-Pen(3)-N-T-7MeW-K(Ac)-Pen(3)-TMAPF-2Nal-THP-E-N-3Pya-Sar-CONH2] |
